Source: article PMC5927803 (Pharmacology Research & Perspectives, 2018)

Sequences of proteins named here, by UniProt entry; tags and fusion partners are left off. A change or cut given only in a name is not applied to a line headed by its entry.
UniProt P11229: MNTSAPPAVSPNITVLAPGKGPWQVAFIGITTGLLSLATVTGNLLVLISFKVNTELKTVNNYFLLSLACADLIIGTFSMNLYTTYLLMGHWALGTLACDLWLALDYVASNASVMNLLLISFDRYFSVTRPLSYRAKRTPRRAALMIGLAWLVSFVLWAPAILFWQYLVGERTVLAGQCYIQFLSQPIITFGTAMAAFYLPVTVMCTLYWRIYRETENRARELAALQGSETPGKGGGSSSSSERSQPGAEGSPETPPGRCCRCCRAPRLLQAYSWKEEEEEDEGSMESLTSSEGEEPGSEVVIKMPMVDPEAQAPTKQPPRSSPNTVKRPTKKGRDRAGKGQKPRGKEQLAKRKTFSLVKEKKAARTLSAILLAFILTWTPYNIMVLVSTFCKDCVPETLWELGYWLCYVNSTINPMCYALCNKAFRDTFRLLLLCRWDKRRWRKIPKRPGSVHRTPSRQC
UniProt P08173, whole entry: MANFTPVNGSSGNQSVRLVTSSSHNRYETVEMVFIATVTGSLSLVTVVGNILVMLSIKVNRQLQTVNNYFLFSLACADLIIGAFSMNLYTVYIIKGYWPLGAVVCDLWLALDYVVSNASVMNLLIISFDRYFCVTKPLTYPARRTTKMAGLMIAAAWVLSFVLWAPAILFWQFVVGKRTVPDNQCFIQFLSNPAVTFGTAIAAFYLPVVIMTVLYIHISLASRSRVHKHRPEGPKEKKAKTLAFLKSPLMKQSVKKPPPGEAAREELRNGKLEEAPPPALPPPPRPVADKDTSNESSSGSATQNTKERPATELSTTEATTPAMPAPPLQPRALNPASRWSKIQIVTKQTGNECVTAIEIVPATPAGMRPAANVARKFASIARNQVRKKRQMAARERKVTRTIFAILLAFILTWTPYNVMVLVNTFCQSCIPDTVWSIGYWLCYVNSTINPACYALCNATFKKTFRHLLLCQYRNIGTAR
UniProt P20309, whole entry: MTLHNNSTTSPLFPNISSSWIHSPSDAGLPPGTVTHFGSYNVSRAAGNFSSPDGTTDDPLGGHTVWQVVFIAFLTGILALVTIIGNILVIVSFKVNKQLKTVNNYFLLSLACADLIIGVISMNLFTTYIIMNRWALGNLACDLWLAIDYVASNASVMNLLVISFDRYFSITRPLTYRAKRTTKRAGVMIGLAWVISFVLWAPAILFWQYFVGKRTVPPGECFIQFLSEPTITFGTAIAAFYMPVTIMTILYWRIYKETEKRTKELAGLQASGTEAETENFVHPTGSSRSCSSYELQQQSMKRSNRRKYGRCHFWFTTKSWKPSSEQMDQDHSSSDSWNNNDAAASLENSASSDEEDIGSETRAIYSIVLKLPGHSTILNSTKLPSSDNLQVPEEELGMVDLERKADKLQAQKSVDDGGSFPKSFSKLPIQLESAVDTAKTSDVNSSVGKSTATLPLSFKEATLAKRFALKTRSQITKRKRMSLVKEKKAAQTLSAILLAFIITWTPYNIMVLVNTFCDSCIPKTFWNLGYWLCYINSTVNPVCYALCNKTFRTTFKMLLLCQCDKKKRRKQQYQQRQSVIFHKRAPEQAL
UniProt P08172, whole entry: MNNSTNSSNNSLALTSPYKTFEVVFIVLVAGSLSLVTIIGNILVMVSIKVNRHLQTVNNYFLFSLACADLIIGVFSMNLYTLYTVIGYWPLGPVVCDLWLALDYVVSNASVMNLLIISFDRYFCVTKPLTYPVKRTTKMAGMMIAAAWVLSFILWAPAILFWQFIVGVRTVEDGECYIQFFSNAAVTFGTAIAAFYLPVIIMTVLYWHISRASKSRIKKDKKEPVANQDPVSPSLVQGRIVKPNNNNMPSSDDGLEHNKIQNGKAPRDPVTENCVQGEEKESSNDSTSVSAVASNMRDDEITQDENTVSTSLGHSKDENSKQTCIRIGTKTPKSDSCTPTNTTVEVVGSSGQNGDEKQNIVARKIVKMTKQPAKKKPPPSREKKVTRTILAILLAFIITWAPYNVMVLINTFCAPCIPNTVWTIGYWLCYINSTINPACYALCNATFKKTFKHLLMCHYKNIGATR

Tests used:
hM1 mAChR [1] = molecular target: T1, hM1 mAChR (Homo sapiens, UniProt P11229); assay: Competition radioligand binding, [^3H]NMS
hM4 mAChR = hM4 mAChR (Homo sapiens, UniProt P08173); assay: Competition radioligand binding, [^3H]NMS
hM3 mAChR [2] = molecular target: T2, hM3 mAChR (Homo sapiens, UniProt P20309); assay: Competition radioligand binding, [^3H]NMS; details: hM3 pKI, [^3H]NMS competition, CHO-K1 membranes, 37°C; mean ± SD
hM3 mAChR [3] = molecular target: T2, hM3 mAChR; assay: Inhibition of agonist-stimulated calcium mobilization; format: cell-based
hM1 mAChR [4] = molecular target: T1, hM1 mAChR; assay: as above; format: cell-based
hM2 mAChR [5] = molecular target: T3, hM2 mAChR (Homo sapiens, UniProt P08172); assay: biochemical; details: hM2 pKI, [^3H]NMS competition, CHO-K1 membranes, 37°C; mean ± SD
hM2 mAChR [6] = molecular target: T3, hM2 mAChR; assay: Inhibition of agonist-stimulated [^35S]GTPγS binding, CHO-K1 membranes; format: biochemical

`C[N+]1(C)CCC(OC(=O)C(O)(c2ccccc2)C2CCCC2)C1` (centres unmarked) [Glycopyrrolate] gave a Ki (hM1 mAChR [1]) of 0.275 nM and a Ki (hM4 mAChR) of 0.372 nM.

`CC(C)[N+]1(C)[C@@H]2CC[C@H]1C[C@@H](OC(=O)C(CO)c1ccccc1)C2` (some centres unmarked) [Ipratropium, reference compound] showed a Ki (hM3 mAChR [2]) of 1.07 nM, a Ki (hM1 mAChR [1]) of 1.78 nM and a Ki (hM3 mAChR [3]) of 0.0427 nM. It also gave a Ki (hM1 mAChR [4]) of 0.151 nM, a Ki (hM2 mAChR [5]) of 0.933 nM and a Ki (hM2 mAChR [6]) of 0.174 nM.
